Source: patent publication US4638009A, “Derivatives of 3-pyrrolidinopropiophenone and a process for preparation thereof” (Hokuriku Pharmaceutical Co., Ltd., priority 1984, dated 1987)

Experiment: in vivo
Conditions: mouse, oral, deaths within 7 days, Probit method, n=5 per group
Experimental: Male ddY mice 5 weeks old were used with 5 animals at a group. The compounds were administrated orally with each dosage. LD50 was determined by the Probit method from dead animals dying within 7 days.

Question: Which LD50 at 168 h does the source give for `CCc1ccc(C(=O)C(C)CN2CCCC2)cc1` (stereo not shown) [Compound 2, 4'-Ethyl-2-methyl-3-pyrrolidinopropiophenone] here?
Answer: 425 mg/kg
